From patent publication US6262094A (priority 1999, dated 2001)
≈ marks a conversion by molar mass, not a printed value.

Each compound was assayed on L929 (DSM ACC 2), mouse connective tissue fibroblasts (assay: cells). Conditions: L929, 120 h, read-out: IC50 L929 mouse.
Format: cell-based

Going from `C/C(=C\c1csc(CN)n1)[C@@H]1C[C@@H]2O[C@@H]2CCC[C@H](C)[C@H](O)[C@@H](C)C(=O)C(C)(C)[C@@H](O)CC(=O)O1` [21-amino-epo A] to `C/C(=C\c1csc(CCl)n1)[C@@H]1C[C@@H]2O[C@@H]2CCC[C@H](C)[C@H](O)[C@@H](C)C(=O)C(C)(C)[C@@H](O)CC(=O)O1` [21-chloro-epo A], the IC50 rises from 8 ng/mL (≈ 0.0157 µM) to 170 ng/mL (≈ 0.322 µM) (21-fold).

First: C/C(=C\c1csc(CN=[N+]=[N-])n1)[C@@H]1C[C@@H]2O[C@@H]2CCC[C@H](C)[C@H](O)[C@@H](C)C(=O)C(C)(C)[C@@H](O)CC(=O)O1 [21-azido-epo A]
Second: C/C(=C\c1csc(CN=[N+]=[N-])n1)[C@@H]1C[C@@H]2O[C@]2(C)CCC[C@H](C)[C@H](O)[C@@H](C)C(=O)C(C)(C)[C@@H](O)CC(=O)O1 [21-azido-epo B, [1S-[1R*,3R* (E),7R*, 10S*,11R*,12R*,16S*]]-3-[2-[2-(Azidomethyl)-4-thiazolyl]-1-methylethenyl]-7,11-dihydroxy-8,8,10,12,16-pentamethyl-4,17-dioxabicyclo[14.1. 0]heptadecane-5,9-dione]
The IC50 of the first is 10-fold higher: 6 ng/mL (≈ 0.0112 µM) for the first, 0.6 ng/mL (≈ 0.00109 µM) for the second.

Compared with `C=Cc1nc(/C=C(\C)[C@@H]2C[C@@H]3O[C@@H]3CCC[C@H](C)[C@H](O)[C@@H](C)C(=O)C(C)(C)[C@@H](O)CC(=O)O2)cs1` [20-vinyl-epo A, [1S-[1R*,3R*(E),7R*,10S*,11R*,12R*,16S*]]-3-[2-(2-Ethenyl-4-thiazolyl)-1-methylethenyl]-7,11-dihydroxy-8,8,10,12-tetramethyl-4,17-dioxabicyclo[14.1. 0]heptadecane-5,9-dione], `C/C(=C\c1csc(C=NO)n1)[C@@H]1C[C@@H]2O[C@@H]2CCC[C@H](C)[C@H](O)[C@@H](C)C(=O)C(C)(C)[C@@H](O)CC(=O)O1` [epo A-20-carbaldoxime] is 2.3-fold higher in IC50: 3 ng/mL (≈ 0.00593 µM) for the first, 7 ng/mL (≈ 0.0134 µM) for the second.

`C/C(=C\c1csc(CN)n1)[C@@H]1C[C@@H]2O[C@]2(C)CCC[C@H](C)[C@H](O)[C@@H](C)C(=O)C(C)(C)[C@@H](O)CC(=O)O1` [21-amino-epo B, [1S-[1R*,3R*(E),7R*,10S*,11R*,12R*,16S*]]-3-[2-[2-(Aminomethyl)-4-thiazolyl]-1-methylethenyl]-7,11-dihydroxy-8,8,10,12,16-pentamethyl-4,17-dioxabicyclo[14.1.0]heptadecane-5,9-dione] showed an IC50 of 0.5 ng/mL (≈ 0.000957 µM).
